Legend:
Translocator protein [1] = target: T1, Translocator protein (Homo sapiens, UniProt P30536); assay: Inhibition of TSPO (unknown origin)
Outline: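 Membranes from male Sprague-Dawley rat cerebral cortex were homogenised and washed in Tris-HCl (30 mM, pH 7.4), then washed in Tris-citrate (50 mM, pH 7.1). […] Bound and free ligand were separated by filtration through GF/C filters and counted by scintillation. […] Percent displacement gave the IC50, and Ki was calculated as IC50/(1+[L]/Kd).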

Chains of the proteins cited; added tags and fusions are not shown.
UniProt P30536, whole entry: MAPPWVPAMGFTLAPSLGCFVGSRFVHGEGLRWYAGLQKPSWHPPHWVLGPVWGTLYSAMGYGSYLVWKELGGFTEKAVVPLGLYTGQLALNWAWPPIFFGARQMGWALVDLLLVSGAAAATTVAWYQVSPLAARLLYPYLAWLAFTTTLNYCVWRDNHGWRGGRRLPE

Translocator protein [2] = target: T1, Translocator protein; assay: Binding affinity to recombinant human TSPO by SPR assay
Outline: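 Biacore T200 at 25 °C with recombinant human TSPO (18 kDa) amine-coupled to a CM5 chip in 10 mM sodium acetate pH 4.5, giving 4000–6000 RU. Compounds from 10 mM DMSO stocks were diluted in PBS-P; running buffer held 1.0% DMSO. Five concentrations, 0.01–5 µM, were injected at 50 µL/min (120 s contact, 300 s dissociation), with blanks and regeneration. KD reported.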

Q: How did the IC50 (Translocator protein [1]) turn out when CCC(C)N(C)C(=O)c1cc2ccccc2c(-c2ccccc2Cl)n1 (configuration not stated) [PK-11195] was run?
A: 1.1 nM

Q: What about the Kd (Translocator protein [2]) of the same compound?
A: 11.1 nM
